From patent US9040563B2, “Dual inhibitors of farnesyltransferase and geranylgeranyltransferase I” (H. Lee Moffitt Cancer Center and Research Institute, Inc., priority 2010, dated 2015)

Target: hFTase (Homo sapiens, UniProt P49354+P49356)
Experiment: In vitro hFTase inhibition: incorporation of [3H]FPP into recombinant H-Ras-CVLS
Format: biochemical
Conditions: GGTase-I IC50 / hFTase IC50

## Cc1ccc(CN(CCN(Cc2cncn2C)c2ccc(C#N)cc2)S(=O)(=O)c2cn(C)cn2)cc1 [1aq]
  selectivity (ratio of GGTase-I to FTase IC50s): 1.6
